Data on 75 compounds can be found in PubChem BioAssay AID1529 (NMMLSC, 2009).

The chains behind the UniProt entries cited, without tags or fusion partners. Where a name states a change or a piece, a line headed by the entry shows the natural chain unless it says otherwise.
UniProt Q99759: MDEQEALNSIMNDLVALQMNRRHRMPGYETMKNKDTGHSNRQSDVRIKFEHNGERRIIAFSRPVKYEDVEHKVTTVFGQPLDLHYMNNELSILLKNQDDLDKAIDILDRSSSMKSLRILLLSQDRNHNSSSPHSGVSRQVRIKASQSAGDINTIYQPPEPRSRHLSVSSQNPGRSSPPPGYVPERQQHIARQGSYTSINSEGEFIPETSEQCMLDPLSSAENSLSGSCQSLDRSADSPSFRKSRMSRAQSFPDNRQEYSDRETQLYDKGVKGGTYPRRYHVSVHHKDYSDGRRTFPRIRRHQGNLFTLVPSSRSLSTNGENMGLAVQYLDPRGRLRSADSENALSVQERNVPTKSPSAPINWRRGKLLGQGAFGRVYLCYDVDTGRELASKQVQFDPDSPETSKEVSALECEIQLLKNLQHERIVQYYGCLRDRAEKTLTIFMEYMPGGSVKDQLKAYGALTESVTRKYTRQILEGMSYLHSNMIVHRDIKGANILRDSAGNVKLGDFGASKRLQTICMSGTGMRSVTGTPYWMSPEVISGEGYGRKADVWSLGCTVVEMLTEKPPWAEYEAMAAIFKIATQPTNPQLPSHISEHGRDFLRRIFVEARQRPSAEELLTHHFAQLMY

The entries are a selection whose mix differs from that of the whole data set. Active and inactive are the calls of the source.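 Rule for the calls: active = binding response more than 3 SD above or below the average of its plate-row segment, actives on both sides; inconclusive = wells at one plate position flagged as instrument error; inactive = the rest.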

The target of this experiment is Mitogen-activated protein kinase kinase kinase 3 (Homo sapiens) (UniProt Q99759). Briefly: modulators of MEKK3-MEK5 PB1 binding, primary screen, biochemical, wildtype MEKK3, multiplex bead flow cytometry, Alexa488-MEK5 (AID 1529).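 Note: Alexa488 bead fluorescence after subtracting the streptavidin-only scavenger bead signal.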 As to conditions: bead-based flow cytometry, Alexa488-MEK5 binding to MEKK3; at 10 µM; actives lie on both sides; 0 = blocked by unlabeled MEK5, 100 = vehicle. (In general: A flow cytometer gives signals particle by particle.)
For the compound `CC(=O)c1ccc(N2CC2c2ccncc2)cc1` (stereo not given), the binding response (% of control) was inactive: 97%.

For the compound `C[C@H]1OP(=O)(Oc2ccccc2)C[C@@H]2O[C@@H]21` (stereo not given in full), the binding response (% of control) is inactive: 105%.

In the case of `C[C@@H]1C=CCP(=O)(Oc2ccccc2)O1` (stereo not given in full), the binding response (% of control) is inactive: 103%.

As to `CC(C)(C)C(=O)NC(Sc1ccccc1)C(Cl)(Cl)Cl` (stereo not given), the binding response (% of control) was inactive: 88%.

Regarding `O=P1(Nc2nc3ccc(Cl)cc3s2)COc2ccccc2O1` (stereo not given), the binding response (% of control) is inactive: 102%.

In the case of `CCOc1ccc(C2=NCC(CBr)S2)cc1` (stereo not given), the binding response (% of control) was inactive: 94%.

For the compound `COc1cc(C2NCCC3(OCCO3)C2(C)C)cc(OC)c1OC` (stereo not given), the binding response (% of control) was inactive: 102%.

Consider `CCOP(=O)(Nc1cccc2ccccc12)OCC`, for which the binding response (% of control) is inactive: 94%.

Regarding `CCCOP(=S)(Nc1nc(N)cc(=O)[nH]1)OCCC`, the binding response (% of control) is inactive: 82%.

Consider `Cc1ccc(NCCc2c([N+](=O)[O-])cc([N+](=O)[O-])cc2[N+](=O)[O-])cc1`, for which the binding response (% of control) was inactive: 94%.

Consider `Nc1cccc2c([As](=O)(O)O)cccc12`, for which the binding response (% of control) was inactive: 91%.

With `Cc1cccc(OCC(=O)OC2CN3CCC2CC3)c1` (stereo not given), the binding response (% of control) is inactive: 83%.

With `O=[As](O)(c1cccc(O)c1)c1cccc(O)c1`, the binding response (% of control) is inactive: 90%.

With `O=[As](O)(O)c1cccnc1`, the binding response (% of control) is inactive: 106%.

Take `COc1cc(C(=O)NCC2(N3CCOCC3)CCCCC2)cc(Cl)c1OC(C)C`: the binding response (% of control) was inactive: 115%.

Take `CS(=O)(=O)c1ccc(Cl)c(NC(=O)COC(=O)C(O)(c2ccccc2)c2ccccc2)c1`: the binding response (% of control) was inactive: 102%.

For `O=C(OC1CN2CCC1CC2)c1ccc(Cl)cc1` (stereo not given), the binding response (% of control) was inactive: 104%.

For the compound `O=[N+]([O-])c1ccc2c(c1)nnn2O`, the binding response (% of control) was inactive: 105%.

Consider `CN(C(=O)Cc1ccc(Cl)c(Cl)c1)[C@H]1CC[C@@]2(CCCO2)C[C@@H]1N1CCCC1`, for which the binding response (% of control) is inactive: 99%.

For `CCOP1(=S)c2c(C)nn(CCC#N)c2N=C(c2ccc(F)cc2)N1C` (stereo not given), the binding response (% of control) is inactive: 102%.

In the case of `CN(C(=O)Cc1ccccc1)[C@@H]1CC[C@]2(CCCO2)C[C@H]1N1CCCC1`, the binding response (% of control) was inactive: 104%.

For the compound `NC(=O)Nc1ccc([As](=O)(O)O)cc1`, the binding response (% of control) is inactive: 88%.

`Nc1ccccc1[As](=O)(O)c1ccccc1`: the binding response (% of control) was inactive: 108%.

Turning to `O=C(O)COc1ccc([As](=O)(O)O)cc1[N+](=O)[O-]`, the binding response (% of control) is inactive: 97%.

`CS(=O)(=O)c1cc([N+](=O)[O-])c2no[n+]([O-])c2c1`: the binding response (% of control) is inactive: 88%.

Take `CCOP1(=S)c2c(C)nn(CCC#N)c2N=C(c2ccccc2F)N1C` (stereo not given): the binding response (% of control) was inactive: 108%.

For the compound `O=P(Nc1nccs1)(Oc1ccccc1)Oc1ccccc1`, the binding response (% of control) is inactive: 106%.

Regarding `O=P(Nc1nccs1)(c1ccccc1)c1nc2ccccc2s1` (stereo not given), the binding response (% of control) was inactive: 99%.

On to `Cc1ccc(OCC(=O)OC2CN3CCC2CC3)cc1` (stereo not given), for which the binding response (% of control) was inactive: 96%.

In the case of `O=[As](O)(c1cccs1)c1cccs1`, the binding response (% of control) is inactive: 102%.

For `O=P1(Nc2ccc(Br)cn2)COc2ccccc2OC1`, the binding response (% of control) is inactive: 101%.

Regarding `Nc1cccc([As](=O)(O)c2ccccc2)c1`, the binding response (% of control) is inactive: 106%.

On to `O=P1(Nc2ncccn2)COc2ccccc2OC1`, for which the binding response (% of control) is inactive: 93%.

Regarding `O=C(/C=C/c1ccccc1)OC1CN2CCC1CC2` (stereo not given), the binding response (% of control) was inactive: 105%.

For the compound `CN(C)C1(CNC(=O)c2ccc(S(C)(=O)=O)cc2)CCCCC1`, the binding response (% of control) was inactive: 85%.

For `CC1CCC(C(C)C)C(OP(=O)(Nc2ccccn2)c2ccccc2)C1` (stereo not given), the binding response (% of control) is inactive: 95%.

On to `Cc1ccc(C(=O)OC2CN3CCC2CC3)cc1` (stereo not given), for which the binding response (% of control) is inactive: 103%.

With `O=[As](O)(c1ccccc1Br)c1ccccc1Br`, the binding response (% of control) was inactive: 94%.

As to `CC1(CBr)Cn2c(nc3ccccc3c2=O)S1` (stereo not given), the binding response (% of control) was inactive: 109%.

For the compound `CC(C)/C=N\N=C(\N)N[N+](=O)[O-]`, the binding response (% of control) was inactive: 95%.

For the compound `CN(C(=O)Cc1ccc(Cl)c(Cl)c1)[C@@H]1CCCC[C@H]1N1CCCC1`, the binding response (% of control) was inactive: 87%.

Turning to `Clc1n[nH]nc1-c1nn[nH][15n]1`, the binding response (% of control) is inactive: 100%.

As to `CC(C)(C)C(=O)NC(Sc1ncccn1)C(Cl)(Cl)Cl` (stereo not given), the binding response (% of control) is inactive: 94%.

Turning to `CCOP(=O)(Nc1ccc(C)cn1)OCC`, the binding response (% of control) is inactive: 106%.

As to `CN(CCCl)Cc1cc(Cl)c(NC2=NCCN2)c(Cl)c1`, the binding response (% of control) was inactive: 111%.

As to `O=P1(Nc2ccccn2)COc2ccccc2OC1`, the binding response (% of control) was inactive: 103%.

For the compound `CCC1=CC2Cc3nc4ccc(Cl)cc4c(N)c3C(C1)C2` (stereo not given), the binding response (% of control) is inactive: 118%.

As to `CCOP(=O)(NC(=NC(C)c1ccccc1)NC(C)c1ccccc1)OCC` (stereo not given), the binding response (% of control) is inactive: 104%.

`CCC(C)N(CC(C)C)C(=S)SC(NC(C)=O)C(Cl)(Cl)Cl` (stereo not given): the binding response (% of control) was inactive: 107%.

With `CCOC(=O)c1ccc(NC(=O)C(C)(CCl)SC)cc1` (stereo not given), the binding response (% of control) is inactive: 99%.

`O=C(OC1CN2CCC1CC2)c1cccc([N+](=O)[O-])c1` (stereo not given): the binding response (% of control) is inactive: 104%.

Turning to `O=C(Nc1ccncc1[N+](=O)[O-])c1ccc([N+](=O)[O-])cc1[N+](=O)[O-]`, the binding response (% of control) was inactive: 105%.

With `COP1(=S)c2c(C)nn(CCC#N)c2N=C(c2ccc(F)cc2)N1C` (stereo not given), the binding response (% of control) is inactive: 102%.

As to `O=[N+]([O-])c1ccc(Nc2ccc(Oc3ccc([N+](=O)[O-])cc3[N+](=O)[O-])cc2)c([N+](=O)[O-])c1`, the binding response (% of control) is inactive: 101%.

For `O=P(Nc1ccccn1)(c1cccc2ccccc12)c1cccc2ccccc12`, the binding response (% of control) is inactive: 101%.

Turning to `Cc1cc(SC(NC=O)C(Cl)(Cl)Cl)ncn1` (stereo not given), the binding response (% of control) was inactive: 102%.

On to `CCOC(=O)Nc1cccc([As](=O)(O)O)c1`, for which the binding response (% of control) was inactive: 109%.

For the compound `CCCCOc1ccc(C(=O)NCC2(N3CCCCC3)CCCCC2)cc1OC`, the binding response (% of control) is inactive: 102%.

Consider `Cc1cc(SC(NC(=O)c2ccccc2)C(Cl)(Cl)Cl)nc(C(C)C)n1` (stereo not given), for which the binding response (% of control) is inactive: 107%.

As to `CCOC(=O)Nc1ccc([As](=O)(O)O)c(O)c1`, the binding response (% of control) is inactive: 103%.

For `CC(C)NC(=O)NP(=O)(Oc1ccccc1)Oc1ccccc1`, the binding response (% of control) is inactive: 105%.

Consider `CCN(CC)C(=S)SC(NC=O)C(Cl)(Cl)Cl` (stereo not given), for which the binding response (% of control) is inactive: 106%.

For `O=[N+]([O-])c1cc([N+](=O)[O-])c(-c2ccn[nH]2)s1`, the binding response (% of control) is inactive: 97%.

Take `CC(C)c1ccc(OP(=O)(Nc2ccccn2)Oc2ccccc2F)cc1` (stereo not given): the binding response (% of control) was inactive: 100%.

On to `ClCCSc1nnc(-c2cccnc2)o1`, for which the binding response (% of control) was inactive: 102%.

Turning to `Cc1ccc2nc3c(c(C)c2c1)CC(C(Cl)Cl)S3` (stereo not given), the binding response (% of control) is inactive: 123%.

Take `Cc1ccc(OP(=O)(Nc2ccc([N+](=O)[O-])cn2)Oc2ccc(C)cc2)cc1`: the binding response (% of control) was inactive: 91%.

As for `O=[As](O)(c1ccc(O)cc1)c1ccccc1O`, the binding response (% of control) was inactive: 108%.

`C[As](=O)(O)c1cccc(C(=O)O)c1`: the binding response (% of control) was inactive: 60%.

On to `COc1ccc(N/C(=N/P(=O)(N2CCOCC2)N2CCOCC2)N2CCOCC2)cc1`, for which the binding response (% of control) is inactive: 110%.

For `COc1ccc2nc(NP(=O)(c3ccccc3)c3ccccc3)sc2c1`, the binding response (% of control) is inactive: 113%.

Take `COc1cc(I)ccc1[As](=O)(O)O`: the binding response (% of control) was inactive: 101%.

In the case of `O=C(OC1CN2CCC1CC2)C12CC3CC(CC(C3)C1)C2` (stereo not given), the binding response (% of control) is inactive: 95%.

For the compound `Cc1cc(=O)[nH]c(N[N+](=O)[O-])n1`, the binding response (% of control) was inactive: 93%.

As for `Cc1c2c(nc3ccccc13)SC(C(Cl)Cl)C2` (stereo not given), the binding response (% of control) was inactive: 106%.
